Data taken from patent publication US20100029652A1, “Combination Therapy For Treating Hepatitis C Infections” (ACHILLION PHARMACEUTICALS, INC., priority 2007, published 2010).

How the values were obtained:
[1] = tested on: HCV replicon (subtype 1b, Con-1) in Huh-luc/neo cells; assay: Short term combination study: HCV replicon luciferase assay in Huh-luc/neo cells, 3-days treatment; format: cell-based, hepatitis C virus
[2] = tested on: HCV replicon in Huh-9-13 cells; assay: Long term combination study: replicon curing assay, colony formation after G418 selection; format: cell-based, hepatitis C virus; details: approximately 5×EC50
Procedure: In other repetitions of this experiment, treatment time varied from 7 to 10 days. Cells were passaged once every 3 days into new plates at the same density (10^5 cells/plate) and with fresh compounds. No G418 was present during the 9 day treatment. On day 10, the cells were passaged again to new plates at a density of 10^5 cells/plate, respectively, and were treated only with G418 for approximately 3 more weeks. […] During the 2˜3 weeks, the old media were replaced with fresh media twice a week. The colonies were fixed with 10% formaldehyde and stained with 2% crystal violet in 20% ethanol.
In this assay, the number of the cells in which the replicons still remained after the 9-day treatment was quantified based on the number of the colonies formed after G418 selection.

[3] = combined with ACH-806, molar ratio 1:10, Chou and Talalay
[4] = combined with ACH-806, molar ratio 1:20, Chou and Talalay
[5] = drug combined with ACH-806, Prichard and Shipman model
[6] = in combination with ACH-806, 9-day treatment

IFN: IFN-alpha-2b (INTRON A, Schering), recombinant interferon alfa 2b, purchased
CI (SD) at Replicon inhibition of 50% [1, 3]: 1.12 (0.08)
CI (SD) at Replicon inhibition of 75% [1, 3]: 0.93 (0.15)
CI (SD) at Replicon inhibition of 90% [1, 3]: 0.81 (0.17)
CI (SD) at Replicon inhibition of 50% [1, 4]: 1.04 (0.05)
CI (SD) at Replicon inhibition of 75% [1, 4]: 0.85 (0.09)
CI (SD) at Replicon inhibition of 90% [1, 4]: 0.73 (0.10)
Overall combinatory antiviral activity ([1]; drug combined with ACH-806): Additive
Volume (SD) Antagonism [1, 5]: 5 (3) μM^2%
Volume (SD) Synergy [1, 5]: 4 (5) μM^2%
log reduction of replicon-containing cells [2, 6]: 4 log
replicon-containing cells cured [2, 6]: ~99.99%
replicon-containing cells cured ([2]; single agent by itself, 9-day treatment): about 90%
